{
  "source": "patent US9216181B2",
  "about": "“BMP-2 upregulating compounds for healing bone tissue and screening methods for selecting such compounds” (Southwest Research Institute, priority 2011, dated 2015)",
  "molecules": {"B1": {"name": "BMP-2: bone morphogenetic protein-2, growth factor used as positive control (protein, UniProt P12643 283-396, looked up)", "Bone morphogenetic protein 2": "QAKHKQRKRLKSSCKRHPLYVDFSDVGWNDWIVAPPGYHAFYCHGECPFPLADHLNSTNHAIVQTLVNSVNSKIPKACCVPTELSAISMLYLDENEKVVLKNYQDMVVEGCGCR"}},
  "test_system": "C3H10T1/2 cells",
  "test": "Visual observation of morphological differentiation of C3H10T1/2 MSC",
  "format": "cell-based, mouse",
  "details": "enhanced medium withdrawn before addition",
  "protocol": "Conveniently the post-confluent cell line is known to be sensitive to BMP-2 induced chondrogenesis and osteogenenesis (Shea, C. M., et al., “BMP treatment of C3H10T1/2 mesenchymal stem cells induces both chondrogenesis and osteogenesis”, J. Cell Biochem, 2003; 90: 1112). The sequence of differentiation follows chondrogenesis→osteogenesis and demands a continuous exposure to BMP-2 or the cells re-differentiate by default into adipocyctes.\nThe C3H10T1/2 cells were grown in an enhanced growth medium of BGjb (Irvine Scientific, Santa Ana, Calif.). The enhanced medium was withdrawn prior to adding positive controls, BMP-2, Lovastatin and PS-1. Cell differentiation was induced by this protocol and morphological changes were observed by visual observation. […] While it is possible that some of the osteoblastic type structures identified were chondroblasts, chondroblasts and osteoblasts can appear rather similar since both are symmetric cells and differentiation into either is indicative of the bone repair process.",
  "data": [
    {"molecule": "B1", "values": [
      {"measurement": "morphological changes by visual observation", "result": "promoted differentiation into osteoblastic type structure and promoted cell proliferation"}
    ]}
  ]
}
